The source of these data is PubChem BioAssay AID602282 (Johns Hopkins Ion Channel Center, 2012).

Only a part is listed here, and it is no random draw. Some tests of the compounds listed are not included; inactive here does not mean inactive elsewhere. The source made the active and inactive calls.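 The calls were made as follows: active = inhibition above 3 SD of the buffer control wells (cut at about 41% in these data); inactive = the rest.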

This assay in a line: inhibition of M3R-evoked calcium signal on retest – cell-based, HEK293 M3R/RGS4 inducible, calcium flux, duplicate, RGS4 activator project, confirmation (AID 602282).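 Also: signal is the integrated peak-minus-minimum Fluo4 fluorescence over baseline ratio.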 The conditions noted are these: carbachol calcium flux Fluo4, at 10 µM, stronger effect = higher value. (A change in cytosolic calcium serves as a functional read-out for many receptors and channels.)
The inhibition is the drop in the measured response relative to a control, in per cent. For `CN(C)C1CCCC1OC(=O)C(O)(c1ccccc1)c1ccccc1` (stereo not drawn), the inhibition is active: 90.5%.
The figure for `C=CCN1CCN(CCOC(=O)C(O)(c2ccccc2)c2ccccc2)CC1` is active: 92%.
The figure for `CCN(CC)CC(C)C(C)OC(=O)C(O)(c1ccccc1)c1ccccc1` (stereo not drawn) is active: 90.5%.
